The values that follow come from patent US20240358847A1, “TROP2 BINDERS AND CONJUGATES THEREOF” (MERCK SHARP & DOHME LLC, priority 2023, published 2024).

This data set can be described thus: Rat PK of αTROP2 MMAE ADC (tAb, cAb, released MMAE). The format is in vivo. As to conditions: male Wistar Hannover rats, 5 mg/kg IV.

B1: ADC 1: αTROP2 (HC:BSM-YTE-S375C) (LC:BSM-Y53D) conjugated to MP-AA-PABC-MMAE (conjugate)
heavy: QVQLLQSGSELKKPGASVKVSCKASGYTFTNYGMNWVRQAPGQGLKWMGWINTYTGEPTYTDDFKGRFSFSLDTSVSQAYLQISSLKAEDTAVYYCARGGFGSSYWYFDVWGQGTLVTVSSASTKGPSVFPLAPSSKSTSGGTAALGCLVKDYFPEPVTVSWNSGALTSGVHTFPAVLQSSGLYSLSSVVTVPSSSLGTQTYICNVNHKPSNTKVDKKVEPKSCDKTHTCPPCPAPELLGGPSVFLFPPKPKDTLYITREPEVTCVVVDVSHEDPEVKFNWYVDGVEVHNAKTKPREEQYNSTYRVVSVLTVLHQDWLNGKEYKCKVSNKALPAPIEKTISKAKGQPREPQVYTLPPSRDELTKNQVSLTCLVKGFYPCDIAVEWESNGQPENNYKTTPPVLDSDGSFFLYSKLTVDKSRWQQGNVFSCSVMHEALHNHYTQKSLSLSPGK
light: DIQLTQSPSSLSASVGDRVTITCKASQDVSIAVAWYQQKPGKAPKLLIYSASDRYTGVPSRFSGSGSGTDFTLTISSLQPEDFATYYCQQHYITPLTFGPGTKVEIKRTVAAPSVFIFPPSDEQLKSGTASVVCLLNNFYPREAKVQWKVDNALQSGNSQESVTEQDSKDSTYSLSSTLTLSKADYEKHKVYACEVTHQGLSSPVTKSFNRGEC
Consider B1, for which the terminal half-life stood at 238 h.
